Data as given in ChEMBL document CHEMBL4428055 (J Med Chem, 2016).
The source made the active and inactive calls. The calls are words filed in the database; no cut-off is given here.

Experiments:
[1] = target: T1, Aldo-keto reductase family 1 member C2 (Homo sapiens) (UniProt P52895); test: Inhibition of human recombinant AKR1C2-mediated reduction of [3H]5alpha-DHT
T1 sequence (whole entry): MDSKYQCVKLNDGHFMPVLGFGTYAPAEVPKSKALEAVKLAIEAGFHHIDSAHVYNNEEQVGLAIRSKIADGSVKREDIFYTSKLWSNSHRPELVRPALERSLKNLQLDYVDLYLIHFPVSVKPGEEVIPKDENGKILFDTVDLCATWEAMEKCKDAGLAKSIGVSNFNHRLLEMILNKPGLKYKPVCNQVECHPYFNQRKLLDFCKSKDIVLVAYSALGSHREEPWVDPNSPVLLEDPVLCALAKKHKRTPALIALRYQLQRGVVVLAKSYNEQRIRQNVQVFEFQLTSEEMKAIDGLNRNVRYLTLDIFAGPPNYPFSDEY

[2] = target: T1, Aldo-keto reductase family 1 member C2 (Homo sapiens); test: Inhibition of human recombinant AKR1C2-mediated reduction of [3H]5alpha-DHT at <100 uM

inhibition [2] | Compound | inhibition [1]
 | CC[C@H](C(=O)O)c1ccc2cc(OC)ccc2c1 | Dose-dependent effect
inactive | CC[C@@H](C(=O)O)c1ccc2cc(OC)ccc2c1 | 
